Laboratory results: ChEMBL document CHEMBL5096191, “Design of Negative and Positive Allosteric Modulators of the Cannabinoid CB2 Receptor Derived from the Natural Product Cannabidiol” (J Med Chem, 2021)

The chains behind the UniProt entries cited, without tags or fusion partners.
UniProt P34972, whole entry A282M: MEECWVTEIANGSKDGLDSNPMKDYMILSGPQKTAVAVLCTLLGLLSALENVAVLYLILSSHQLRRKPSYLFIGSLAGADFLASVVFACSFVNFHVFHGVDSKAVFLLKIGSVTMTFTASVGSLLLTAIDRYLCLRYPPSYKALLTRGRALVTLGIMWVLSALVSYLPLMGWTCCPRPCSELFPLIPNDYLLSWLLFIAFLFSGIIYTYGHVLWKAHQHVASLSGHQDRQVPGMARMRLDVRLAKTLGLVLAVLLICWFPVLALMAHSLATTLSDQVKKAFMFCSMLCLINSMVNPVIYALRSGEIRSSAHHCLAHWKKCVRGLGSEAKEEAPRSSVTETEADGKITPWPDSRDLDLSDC
UniProt P34972, whole entry: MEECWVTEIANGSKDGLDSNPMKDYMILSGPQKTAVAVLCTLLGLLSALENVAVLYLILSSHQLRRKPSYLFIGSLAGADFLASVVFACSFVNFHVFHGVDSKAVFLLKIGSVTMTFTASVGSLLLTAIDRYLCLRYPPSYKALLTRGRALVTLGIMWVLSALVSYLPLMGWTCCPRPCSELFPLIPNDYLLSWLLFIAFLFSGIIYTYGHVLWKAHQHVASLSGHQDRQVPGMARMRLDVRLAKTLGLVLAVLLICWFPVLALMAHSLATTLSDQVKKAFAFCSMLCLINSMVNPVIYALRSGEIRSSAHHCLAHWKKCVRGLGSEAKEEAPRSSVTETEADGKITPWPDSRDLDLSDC
UniProt P34972, whole entry S285L: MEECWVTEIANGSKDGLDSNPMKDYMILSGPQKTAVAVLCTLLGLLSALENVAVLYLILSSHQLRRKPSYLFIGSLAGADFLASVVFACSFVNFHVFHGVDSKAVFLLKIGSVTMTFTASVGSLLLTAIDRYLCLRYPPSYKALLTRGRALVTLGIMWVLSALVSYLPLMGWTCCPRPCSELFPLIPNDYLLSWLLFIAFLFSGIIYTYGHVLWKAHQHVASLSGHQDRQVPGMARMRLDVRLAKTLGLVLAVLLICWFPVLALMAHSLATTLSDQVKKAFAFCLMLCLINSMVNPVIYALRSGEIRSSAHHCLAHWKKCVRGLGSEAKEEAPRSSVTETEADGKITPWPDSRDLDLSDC
UniProt P34972, whole entry V36M: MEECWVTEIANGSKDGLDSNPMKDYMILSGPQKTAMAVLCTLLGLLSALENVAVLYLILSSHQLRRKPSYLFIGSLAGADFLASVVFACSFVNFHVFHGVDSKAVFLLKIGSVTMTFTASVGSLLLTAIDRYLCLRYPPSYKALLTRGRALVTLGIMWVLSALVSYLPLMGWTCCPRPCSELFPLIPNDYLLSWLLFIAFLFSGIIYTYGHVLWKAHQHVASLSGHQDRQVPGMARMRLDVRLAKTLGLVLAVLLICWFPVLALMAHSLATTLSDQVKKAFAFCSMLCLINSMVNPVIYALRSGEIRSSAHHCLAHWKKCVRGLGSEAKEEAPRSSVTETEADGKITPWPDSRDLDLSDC
UniProt P34972, whole entry V113M: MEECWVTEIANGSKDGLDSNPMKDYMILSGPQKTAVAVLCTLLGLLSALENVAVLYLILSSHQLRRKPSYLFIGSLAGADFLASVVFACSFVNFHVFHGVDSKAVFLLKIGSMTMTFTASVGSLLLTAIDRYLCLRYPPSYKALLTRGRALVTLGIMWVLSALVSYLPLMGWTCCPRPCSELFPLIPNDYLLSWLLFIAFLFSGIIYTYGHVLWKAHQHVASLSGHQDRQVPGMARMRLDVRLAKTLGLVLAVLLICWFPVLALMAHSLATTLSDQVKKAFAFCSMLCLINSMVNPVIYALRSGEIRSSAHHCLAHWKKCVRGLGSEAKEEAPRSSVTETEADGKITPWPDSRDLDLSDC

Tests used:
Type in all cases: functional, cell-based
[1] = target: T1, Cannabinoid receptor 2 (Homo sapiens, UniProt P34972, A282M); assay: Partial agonist activity at CBR2 A2827.36M mutant (unknown origin) stably expressed in HEK293T assessed as decrease in forskolin induced cAMP level preincubated for 15 mins followed by forskolin addition incubated for 15 mins in presence of JWH-133 by HTRF assay
[2] = target: T1, Cannabinoid receptor 2; assay: Partial agonist activity at CBR2 A2827.36M mutant (unknown origin) expressed in HEK293T assessed as increase in ERK1/2 phosphorylation incubated for 7 mins in presence of JWH-133 by AlphaScreenSureFire method
[3] = target: T2, Cannabinoid receptor 2 (Homo sapiens, UniProt P34972); assay: Partial agonist activity at wild type CB2 receptor (unknown origin) stably expressed in HEK293T assessed as decrease in forskolin induced cAMP level preincubated for 15 mins followed by forskolin addition incubated for 15 mins in presence of JWH-133 by HTRF assay
[4] = target: T2, Cannabinoid receptor 2; assay: Partial agonist activity at wild type CB2 receptor (unknown origin) stably expressed in HEK293T assessed as decrease in forskolin induced cAMP level preincubated for 15 mins followed by forskolin addition incubated for 15 mins by HTRF assay
[5] = target: T2, Cannabinoid receptor 2; assay: Partial agonist activity at wild type CB2 receptor (unknown origin) expressed in HEK293T assessed as increase in picometer shifts of reflected light wavelengths by DMR assay
[6] = target: T2, Cannabinoid receptor 2; assay: Positive allosteric modulation of JWH-133-induced agonist activity at wild type CB2 receptor (unknown origin) stably expressed in HEK293T cells assessed as inhibition of forskolin-stimulated cAMP levels preincubated for 15 mins followed by forskolin addition incubated for 15 mins by HTRF assay
[7] = target: T3, Cannabinoid receptor 2 (Homo sapiens, UniProt P34972, S285L); assay: Partial agonist activity at CBR2 S2857.39L mutant (unknown origin) expressed in HEK293T assessed as increase in ERK1/2 phosphorylation incubated for 7 mins in presence of JWH-133 by AlphaScreenSureFire method
[8] = target: T4, Cannabinoid receptor 2 (Homo sapiens, UniProt P34972, V36M); assay: Partial agonist activity at CBR2 V361.35M mutant (unknown origin) expressed in HEK293T assessed as increase in picometer shifts of reflected light wavelengths in presence of JWH-133 by DMR assay
[9] = target: T5, Cannabinoid receptor 2 (Homo sapiens, UniProt P34972, V113M); assay: Partial agonist activity at CBR2 V1133.32M mutant (unknown origin) expressed in HEK293T assessed as increase in picometer shifts of reflected light wavelengths by DMR assay
[10] = target: T5, Cannabinoid receptor 2; assay: Partial agonist activity at CBR2 V1133.32M mutant (unknown origin) expressed in HEK293T assessed as increase in picometer shifts of reflected light wavelengths in presence of JWH-133 by DMR assay
[11] = target: T2, Cannabinoid receptor 2; assay: Partial agonist activity at wild type CB2 receptor (unknown origin) expressed in HEK293T assessed as increase in picometer shifts of reflected light wavelengths in presence of JWH-133 by DMR assay
[12] = target: T3, Cannabinoid receptor 2; assay: Partial agonist activity at CBR2 S2857.39L mutant (unknown origin) stably expressed in HEK293T assessed as decrease in forskolin induced cAMP level preincubated for 15 mins followed by forskolin addition incubated for 15 mins in presence of JWH-133 by HTRF assay
[13] = target: T4, Cannabinoid receptor 2; assay: Partial agonist activity at CBR2 V361.35M mutant (unknown origin) stably expressed in HEK293T assessed as decrease in forskolin induced cAMP level preincubated for 15 mins followed by forskolin addition incubated for 15 mins in presence of JWH-133 by HTRF assay
[14] = target: T5, Cannabinoid receptor 2; assay: Partial agonist activity at CBR2 V1133.32M mutant (unknown origin) expressed in HEK293T assessed as increase in ERK1/2 phosphorylation incubated for 7 mins by AlphaScreenSureFire method
[15] = target: T5, Cannabinoid receptor 2; assay: Partial agonist activity at CBR2 V1133.32M mutant (unknown origin) stably expressed in HEK293T assessed as decrease in forskolin induced cAMP level preincubated for 15 mins followed by forskolin addition incubated for 15 mins in presence of JWH-133 by HTRF assay
[16] = target: T4, Cannabinoid receptor 2; assay: Partial agonist activity at CBR2 V361.35M mutant (unknown origin) expressed in HEK293T assessed as increase in ERK1/2 phosphorylation incubated for 7 mins in presence of JWH-133 by AlphaScreenSureFire method
[17] = target: T5, Cannabinoid receptor 2; assay: Partial agonist activity at CBR2 V1133.32M mutant (unknown origin) expressed in HEK293T assessed as increase in ERK1/2 phosphorylation incubated for 7 mins in presence of JWH-133 by AlphaScreenSureFire method
[18] = target: T2, Cannabinoid receptor 2; assay: Partial agonist activity at wild type CB2 receptor (unknown origin) expressed in HEK293T assessed as increase in ERK1/2 phosphorylation incubated for 7 mins in presence of JWH-133 by AlphaScreenSureFire method
[19] = target: T5, Cannabinoid receptor 2; assay: Partial agonist activity at CBR2 V1133.32M mutant (unknown origin) stably expressed in HEK293T assessed as decrease in forskolin induced cAMP level preincubated for 15 mins followed by forskolin addition incubated for 15 mins by HTRF assay
[20] = target: T2, Cannabinoid receptor 2; assay: Partial agonist activity at wild type CB2 receptor (unknown origin) expressed in HEK293T assessed as increase in ERK1/2 phosphorylation incubated for 7 mins by AlphaScreenSureFire method

Work on `C=C(C)[C@@H]1CCC(C)=C[C@H]1c1c(O)cc(CCCCC)cc1O` [CANNABIDIOL] yielded an EC50 [1] of 7.94 nM, an EC50 [2] of 12.6 nM and an EC50 [3] of 50.1 nM. It also gave an EC50 [4] of 50.1 nM, an EC50 [5] of 501 nM and an EC50 [6] of 251 nM. It also gave an EC50 [7] of 31.6 nM, an EC50 [8] of 631 nM and an EC50 [9] of 631 nM. For the same molecule, the EC50 [10] was 398 nM, the EC50 [11] was 631 nM and the EC50 [12] was 39.8 nM. For the same molecule, the EC50 [13] was 15.8 nM, the EC50 [14] was 12.6 nM and the EC50 [15] was 25.1 nM. It also gave an EC50 [16] of 39.8 nM, an EC50 [17] of 39.8 nM and an EC50 [18] of 7.94 nM. The EC50 [19] was 39.8 nM and the EC50 [20] was 12.6 nM.
